This is an account of results in article PMC8713283 (Journal of Medicinal Chemistry, 2021).

Each structure is given as a SMILES string.

One data set concerns P-gp (human MDR1). Put plainly: in vitro. To be noted: dog, MDCK-MDR1.
Data set [1] in a line: Log D(dec/w) shake flask partition coefficient. It is filed as physicochemical. As to conditions: 1,9-decadiene/PBS; 1,9-decadiene and PBS pH 7.4 shake flask partition coefficient.
For data set [2] the following is noted: LPEester – LPEamide by amide–ester matched pairs.

Consider `Cc1ncsc1-c1ccc(CNC(=O)[C@@H]2C[C@@H](O)CN2C(=O)[C@@H](NC(=O)CCCCCOC(=O)Cc2ccccc2)C(C)(C)C)cc1` [Compound 10, 6-(((S)-1-((2S,4R)-4-Hydroxy-2-((4-(4-methylthiazol-5-yl)benzyl)carbamoyl)pyrrolidin-1-yl)-3,3-dimethyl-1-oxobutan-2-yl)amino)-6-oxohexyl 2-phenylacetate], for which the “PAMPA Pe” value was 6.5 ×10^–6 cm/s. Moreover, in the data set with P-gp (human MDR1), the Papp A→B (in general, how fast a substance crosses the layer from the apical side) at 5 µM is 0.9 ×10⁻⁶ cm/s and the Papp B→A – broadly, how fast a substance crosses the layer from the basolateral side – at 5 µM was 42.2 ×10⁻⁶ cm/s. In data set [1], this molecule registered a logD hydrocarbon water of 0.8. Also, the ΔLPE in data set [2] was determined as 1.6.
In the data set on P-gp (human MDR1), `Cc1ncsc1-c1ccc(CNC(=O)[C@@H]2C[C@@H](O)CN2C(=O)[C@@H](NC(=O)CCOCCOC(=O)Cc2ccccc2)C(C)(C)C)cc1` [Compound 18, 2-(3-(((S)-1-((2S,4R)-4-Hydroxy-2-((4-(4-methylthiazol-5-yl)benzyl)carbamoyl)pyrrolidin-1-yl)-3,3-dimethyl-1-oxobutan-2-yl)amino)-3-oxopropoxy)ethyl 2-phenylacetate] registered a Papp A→B at 5 µM of 0.6 ×10⁻⁶ cm/s and a Papp B→A at 5 µM of 39.1 ×10⁻⁶ cm/s. For the same molecule, in data set [1], the logD hydrocarbon water is -0.2. In data set [2], this molecule returned a ΔLPE of 0.5.
Regarding `Cc1ncsc1-c1ccc(CNC(=O)[C@@H]2C[C@@H](O)CN2C(=O)[C@@H](NC(=O)CCOCCOCCOC(=O)Cc2ccccc2)C(C)(C)C)cc1` [Compound 19, 2-(2-(3-(((S)-1-((2S,4R)-4-Hydroxy-2-((4-(4-methylthiazol-5-yl)benzyl)carbamoyl)pyrrolidin-1-yl)-3,3-dimethyl-1-oxobutan-2-yl)amino)-3-oxopropoxy)ethoxy)ethyl 2-phenylacetate], the Papp B→A at 5 µM in the data set on P-gp (human MDR1) came to 23.7 ×10⁻⁶ cm/s. The same molecule came in with a logD hydrocarbon water in data set [1] of -0.5. The ΔLPE in data set [2] was determined as 1.1.
For `Cc1ncsc1-c1ccc(CNC(=O)[C@@H]2C[C@@H](O)CN2C(=O)[C@@H](NC(=O)CCOCCOCCOCCOC(=O)Cc2ccccc2)C(C)(C)C)cc1` [Compound 20, (S)-14-((2S,4R)-4-Hydroxy-2-((4-(4-methylthiazol-5-yl)benzyl)carbamoyl)pyrrolidine-1-carbonyl)-15,15-dimethyl-12-oxo-3,6,9-trioxa-13-azahexadecyl 2-phenylacetate], in the data set with P-gp (human MDR1), the Papp A→B at 5 µM turned out to be 1 ×10⁻⁶ cm/s and the Papp B→A at 5 µM worked out at 18.3 ×10⁻⁶ cm/s. The logD hydrocarbon water in data set [1] is -0.7. Besides, in data set [2], the ΔLPE amounted to 0.5.
